The values that follow are results of earlier work, collected in patent US20120070472A1, “CHRONOTHERAPEUTIC COMPOSITIONS AND METHODS OF THEIR USE” (Circ Pharma Research & Development Limited, priority 2004, published 2012).

For the data set the following is noted: in vivo.

Take Methyldopa: the “Elimination Half-Life” value was 1.8 h.
